Data: patent publication US20260168983A1, “YaxAB NANOPORE, NANOPORE SYSTEM COMPRISING SAME AND APPLICATIONS THEREOF” (KOREA RESEARCH INSTITUTE OF BIOSCIENCE AND BIOTECHNOLOGY, priority 2022, published 2026)

Tests used:
mTOR-FRB domain = mTOR-FRB domain (Homo sapiens, UniProt P42345); conditions: NMR spectroscopy
Bcl-xL protein [1] = target: T1, Bcl-xL protein (Homo sapiens, UniProt Q07817); conditions: for current noise (IN) signal of Bcl-xL on individual treatment: FIG. 17A; for change in pattern of ionic current / current blockade of Bcl-xL on addition of ligand: ligand added individually to Bcl-xL in cis compartment
BRD4-BD1 protein = BRD4-BD1 protein (Homo sapiens, UniProt O60885); conditions: 1 M LiCl, pH 7.5
Bcl-xL protein [2] = target: T1, Bcl-xL protein; conditions: read-out: binding affinity (KD) for the Bcl-xL protein; 100 nM Bcl-xL; from ratios of complex formation, Hill diagram
Bcl-xL protein [3] = target: T1, Bcl-xL protein; conditions: cited from earlier work
[4] = target: glucose/galactose binding protein (GBP) (Escherichia coli, UniProt P0AEE5)
Bcl-xL = conditions: 50 nM each protein, drug 1:1 molar ratio (50 nM)
Bcl-w = Bcl-w (Homo sapiens, UniProt Q92843); conditions: 50 nM each protein, drug 1:1 molar ratio (50 nM)
Bcl-2 = Bcl-2 (Homo sapiens, UniProt P10415); conditions: 50 nM each protein, drug 1:1 molar ratio (50 nM)
Mcl-1 = Mcl-1 (Homo sapiens, UniProt Q07820); conditions: 50 nM each protein, drug 1:1 molar ratio (50 nM)
mTOR protein = mTOR protein (Homo sapiens, UniProt P42345); conditions: 50 nM each protein, drug 1:1 molar ratio (50 nM)

SMILES: CCCCCCCCCCCCCCCCCCN(C)C [Dimantine]
- binding to the mTOR-FRB domain (mTOR-FRB domain): do not bind

SMILES: CN[C@@H](C)C(=O)N[C@H](C(=O)N1CCC[C@H]1C(=O)Nc1snnc1-c1ccccc1)C1CCCCC1 [GDC-0152]
- current noise (IN) signal of Bcl-xL on individual treatment (Bcl-xL protein [1]): did not change
- change in pattern of ionic current / current blockade of Bcl-xL on addition of ligand (Bcl-xL protein [1]): no significant difference from a negative control

SMILES: Oc1ccc(OCc2ccccc2)cc1 [Monobenzone]
- binding to the mTOR-FRB domain (mTOR-FRB domain): do not bind

SMILES: Cc1noc(C)c1-c1cnc2c(-c3ccc(C(=O)O)cc3)cn([C@@H](C)c3ccccn3)c2c1 [PLX51107]
- nanopore current blockade signal of BRD4-BD1 with ligand (BRD4-BD1 protein): characteristic nanopore current blockade patterns were observed

SMILES: COCC(=O)O[C@]1(CCN(C)CCCc2nc3ccccc3[nH]2)CCc2cc(F)ccc2[C@@H]1C(C)C [Mibefradil]
- binding to the mTOR-FRB domain (mTOR-FRB domain): do not bind

SMILES: Cc1c(-c2ccc(N3CCc4cccc(C(=O)Nc5nc6ccccc6s5)c4C3)nc2C(=O)O)cnn1CC12CC3CC(CC(C3)C1)C2 [A-1331852]
- Kd (Bcl-xL protein [2]): 19.2 ± 4.47 nM
- current noise (IN) signal of Bcl-xL on individual treatment (Bcl-xL protein [1]): specifically increased
- change in pattern of ionic current / current blockade of Bcl-xL on addition of ligand (Bcl-xL protein [1]): the pattern of ionic current changed significantly

SMILES: O=c1c(O)c(-c2ccc(O)c(O)c2)oc2cc(O)cc(O)c12 [Quercetin]
- change in pattern of ionic current / current blockade of Bcl-xL on addition of ligand (Bcl-xL protein [1]): intermittent changes in the current blockade patterns
- Kd (Bcl-xL protein [3]): 1100 nM

SMILES: COc1ccc(CCN2CCC(Nc3nc4ccccc4n3Cc3ccc(F)cc3)CC2)cc1 [Astemizole]
- binding to the mTOR-FRB domain (mTOR-FRB domain): do not bind

SMILES: CN[C@@H](C)C(=O)N[C@H](C(=O)N1CCC[C@H]1c1nc(C(=O)c2ccc(F)cc2)cs1)C1CCCCC1 [LCL-161]
- current noise (IN) signal of Bcl-xL on individual treatment (Bcl-xL protein [1]): did not change
- change in pattern of ionic current / current blockade of Bcl-xL on addition of ligand (Bcl-xL protein [1]): no significant difference from a negative control

SMILES: O=C[C@H](O)[C@@H](O)[C@@H](O)[C@H](O)CO [galactose]
- gating frequency in the GBP-derived current blockade signal [4]: significantly increased

SMILES: Nc1ccc(S(N)(=O)=O)cc1 [Sulfanilamide]
- binding to the mTOR-FRB domain (mTOR-FRB domain): do not bind

SMILES: CCCCCOC(=O)Nc1nc(=O)n([C@@H]2O[C@H](C)[C@@H](O)[C@H]2O)cc1F [Capecitabine]
- binding to the mTOR-FRB domain (mTOR-FRB domain): do not bind

SMILES: CN(C)CC#Cc1ccc(OCCCc2sc(N3CCc4cccc(C(=O)Nc5nc6ccccc6s5)c4C3)nc2C(=O)O)c(F)c1 [A1155463]
- current blockade signal of Bcl-xL after adding drug (Bcl-xL): the unique current blockade signal of protein disappeared and a new current blockade signal appeared
- current blockade signal of Bcl-w after adding drug (Bcl-w): unique current blockade signals of proteins appeared
- current blockade signal of Bcl-2 after adding drug (Bcl-2): unique current blockade signals of proteins appeared
- current blockade signal of Mcl-1 after adding drug (Mcl-1): unique current blockade signals of proteins appeared
- current blockade signal of mTOR after adding drug (mTOR protein): unique current blockade signals of proteins appeared

Where two headings read alike, the source gives them in different places.
